Assay results taken from US20210395313A1, “PEPTIDE PAC1 ANTAGONISTS” (AMGEN INC., priority 2017, published 2021).

How the values were obtained:
human PAC1 receptor = target: T1, human PAC1 receptor (Homo sapiens, UniProt P41586); assay: LANCE Ultra cAMP accumulation antagonist assay in SHSY-5Y cells; format: cell-based;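 further: inhibition of cAMP accumulation evoked by PAC1 agonist at its EC80 in SHSY-5Y cells endogenously expressing receptor, 30 min preincubation then 15 min agonist, TR-FRET readout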
T1 construct: SHSY-5Y (human neuroblastoma cell line) and RG-2 (rat glioma cell line) cells endogenously express human and rat PAC1 receptors, respectively; endogenous in cells; host or cells: SHSY-5Y human neuroblastoma cells
T1 sequence (P41586 21-468): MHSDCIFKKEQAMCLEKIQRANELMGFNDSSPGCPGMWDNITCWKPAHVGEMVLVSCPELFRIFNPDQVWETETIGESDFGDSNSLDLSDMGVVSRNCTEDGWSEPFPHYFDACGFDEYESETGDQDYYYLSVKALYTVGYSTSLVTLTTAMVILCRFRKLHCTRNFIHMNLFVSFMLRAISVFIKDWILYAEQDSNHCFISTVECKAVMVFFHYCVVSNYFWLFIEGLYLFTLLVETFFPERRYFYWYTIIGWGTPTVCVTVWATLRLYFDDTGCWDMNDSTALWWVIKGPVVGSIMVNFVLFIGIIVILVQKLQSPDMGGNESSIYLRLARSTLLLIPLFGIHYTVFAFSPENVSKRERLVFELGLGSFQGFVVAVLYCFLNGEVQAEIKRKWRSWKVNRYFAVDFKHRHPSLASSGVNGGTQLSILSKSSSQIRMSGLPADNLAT

rat PAC1 receptor = target: T2, rat PAC1 receptor (Rattus norvegicus, UniProt P32215); assay: LANCE Ultra cAMP accumulation antagonist assay in RG-2 cells; format: cell-based;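 further: RG-2 rat glioma cells endogenously expressing PAC1, test peptide preincubated 30 min, then PAC1 agonist added at its EC80 for 15 min, cAMP accumulation read by LANCE Ultra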
T2 construct: SHSY-5Y (human neuroblastoma cell line) and RG-2 (rat glioma cell line) cells endogenously express human and rat PAC1 receptors, respectively; endogenous in cells; host or cells: RG-2 rat glioma cells
T2 sequence (P32215 20-523): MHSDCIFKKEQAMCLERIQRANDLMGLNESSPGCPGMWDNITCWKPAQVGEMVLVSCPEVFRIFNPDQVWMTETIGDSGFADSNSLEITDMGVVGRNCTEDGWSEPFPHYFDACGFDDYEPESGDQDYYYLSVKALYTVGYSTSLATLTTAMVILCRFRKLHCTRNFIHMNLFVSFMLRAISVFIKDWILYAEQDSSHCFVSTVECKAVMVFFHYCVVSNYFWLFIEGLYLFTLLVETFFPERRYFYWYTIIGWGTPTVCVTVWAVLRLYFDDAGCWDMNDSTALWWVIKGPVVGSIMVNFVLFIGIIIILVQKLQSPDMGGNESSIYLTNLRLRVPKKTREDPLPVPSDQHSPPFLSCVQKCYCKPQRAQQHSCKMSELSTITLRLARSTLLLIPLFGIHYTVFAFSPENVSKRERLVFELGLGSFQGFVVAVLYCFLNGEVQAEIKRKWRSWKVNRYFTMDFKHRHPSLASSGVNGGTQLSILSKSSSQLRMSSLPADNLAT

SMILES	IC50 (human PAC1 receptor)	IC50 (rat PAC1 receptor)
CC[C@H](C)[C@H](NC(=O)[C@H](C)NC(=O)[C@H](CCCCN)NC(=O)[C@H](CCCNC(=N)N)NC(=O)[C@H](Cc1ccccc1)NC(=O)[C@H](CCC(N)=O)NC(=O)[C@@H]1CSSC[C@H](N)C(=O)N[C@@H](CC(=O)O)C(=O)N[C@@H](C)C(=O)N[C@@H]([C@@H](C)O)C(=O)N1)C(=O)N[C@@H](CC(=O)O)C(=O)N[C@@H](CC(=O)O)C(=O)N[C@H]1CSSC[C@@H](C(=O)N[C@@H](CCSC)C(=O)N[C@@H](CCCCN)C(=O)N[C@@H](CCC(N)=O)C(=O)N[C@@H](CCCCN)C(=O)N[C@@H](CCCCN)C(=O)N[C@@H](CCCCN)C(=O)N[C@@H](CCC(=O)O)C(=O)N[C@@H](Cc2ccccc2)C(=O)N[C@@H](CCCCN)C(=O)N[C@@H](C)C(=O)NCC(=O)NCC(=O)N[C@@H](CO)C(=O)O)NC(=O)C(C)(C)NC(=O)[C@H](CCCCN)NC(=O)[C@H](Cc2ccccc2)NC(=O)[C@H](C(C)C)NC(=O)[C@H](CO)NC(=O)CNC(=O)[C@@H]2CCCN2C(=O)[C@H](C(C)C)NC(=O)[C@H](CC(N)=O)NC(=O)[C@H](CO)NC(=O)[C@H](Cc2c[nH]cn2)NC(=O)[C@H](Cc2c[nH]cn2)NC(=O)[C@H](C)NC(=O)[C@H](CCC(N)=O)NC(=O)[C@H](CCCCN)NC(=O)[C@H](CCC(N)=O)NC1=O [compound 157]	1 to 100 nM	0.01 to 1 nM
CC[C@H](C)[C@H](NC(=O)[C@H](C)NC(=O)[C@H](CCCCN)NC(=O)[C@H](CCCNC(=N)N)NC(=O)[C@H](Cc1ccccc1)NC(=O)[C@H](CCC(N)=O)NC(=O)[C@@H]1CSSC[C@H](N)C(=O)N[C@@H](CC(=O)O)C(=O)N[C@@H](C)C(=O)N[C@@H]([C@@H](C)O)C(=O)N1)C(=O)N[C@@H](CC(=O)O)C(=O)N[C@@H](CC(=O)O)C(=O)N[C@H]1CSSC[C@@H](C(=O)N[C@@H](CCSC)C(=O)N[C@@H](CCCCN)C(=O)N[C@@H](CCC(N)=O)C(=O)N[C@@H](CCCCN)C(=O)N[C@@H](CCCCN)C(=O)N[C@@H](CCCCN)C(=O)N[C@@H](CCC(=O)O)C(=O)N[C@@H](Cc2ccccc2)C(=O)N[C@@H](CCCCN)C(=O)N[C@@H](C)C(=O)NCC(N)=O)NC(=O)[C@@H](C)NC(=O)[C@H](CCCCN)NC(=O)[C@H](Cc2ccccc2)NC(=O)[C@H](C(C)C)NC(=O)[C@H](CO)NC(=O)CNC(=O)[C@@H]2CCCN2C(=O)[C@H](C(C)C)NC(=O)[C@H](CC(N)=O)NC(=O)[C@H](CO)NC(=O)[C@H](Cc2c[nH]cn2)NC(=O)[C@H](Cc2c[nH]cn2)NC(=O)[C@H](C)NC(=O)[C@H](CCC(N)=O)NC(=O)[C@H](CCCCN)NC(=O)[C@H](CCC(N)=O)NC1=O [compound 230]	0.01 to 1 nM	0.01 to 1 nM
CC[C@H](C)[C@H](NC(=O)[C@H](C)NC(=O)[C@H](CCCCN)NC(=O)[C@H](CCCNC(=N)N)NC(=O)[C@H](Cc1ccccc1)NC(=O)[C@H](CCC(N)=O)NC(=O)[C@@H]1CSSC[C@H](N)C(=O)N[C@@H](CC(=O)O)C(=O)N[C@@H](C)C(=O)N[C@@H]([C@@H](C)O)C(=O)N1)C(=O)N[C@@H](CC(=O)O)C(=O)N[C@@H](CC(=O)O)C(=O)N[C@H]1CSSC[C@@H](C(=O)N[C@@H](CCSC)C(=O)N[C@@H](CCCCN)C(=O)N[C@@H](CCC(N)=O)C(=O)N[C@@H](CCCCN)C(=O)N[C@@H](CCCCN)C(=O)N[C@@H](CCCCN)C(=O)N[C@@H](CCC(=O)O)C(=O)N[C@@H](Cc2ccccc2)C(=O)N[C@@H](CCCCN)C(=O)N[C@@H](C)C(=O)NCC(N)=O)NC(=O)C(C)(C)NC(=O)[C@H](CCCCN)NC(=O)[C@H](Cc2ccccc2)NC(=O)[C@H](C(C)C)NC(=O)[C@H](CO)NC(=O)CNC(=O)[C@@H]2CCCN2C(=O)[C@H](C(C)C)NC(=O)[C@H](CC(N)=O)NC(=O)[C@H](CO)NC(=O)[C@H](Cc2c[nH]cn2)NC(=O)[C@H](Cc2c[nH]cn2)NC(=O)[C@H](C)NC(=O)[C@H](CCC(N)=O)NC(=O)[C@H](CCCCN)NC(=O)[C@H](CC(=O)O)NC1=O [compound 254]	0.01 to 1 nM	0.01 to 1 nM
CC[C@H](C)[C@H](NC(=O)[C@H](C)NC(=O)[C@H](CCCCN)NC(=O)[C@H](CCCNC(=N)N)NC(=O)[C@H](Cc1ccccc1)NC(=O)[C@H](CCC(N)=O)NC(=O)[C@@H]1CSSC[C@H](N)C(=O)N[C@@H](CC(=O)O)C(=O)N[C@@H](C)C(=O)N[C@@H]([C@@H](C)O)C(=O)N1)C(=O)N[C@@H](CC(=O)O)C(=O)N[C@@H](CC(=O)O)C(=O)N[C@H]1CSSC[C@@H](C(=O)N[C@@H](CCSC)C(=O)N[C@@H](CCCCN)C(=O)N[C@@H](CCC(N)=O)C(=O)N[C@@H](CCCCN)C(=O)N[C@@H](CCCCN)C(=O)N[C@@H](CCCCN)C(=O)N[C@@H](CCC(=O)O)C(=O)N[C@@H](Cc2ccccc2)C(=O)N[C@@H](CCCCN)C(=O)N[C@@H](C)C(=O)NCC(N)=O)NC(=O)C(C)(C)NC(=O)[C@H](CCCCN)NC(=O)[C@H](Cc2ccccc2)NC(=O)[C@H](CO)NC(=O)CNC(=O)[C@@H]2CCCN2C(=O)[C@H](C(C)C)NC(=O)[C@H](CC(N)=O)NC(=O)[C@H](CO)NC(=O)[C@H](Cc2c[nH]cn2)NC(=O)[C@H](Cc2c[nH]cn2)NC(=O)[C@H](C)NC(=O)[C@H](CCC(N)=O)NC(=O)[C@H](CCCCN)NC(=O)[C@H](CC(=O)O)NC1=O [compound 234]	0.01 to 1 nM	0.01 to 1 nM
CCCC[C@H](NC(=O)[C@@H]1CSSC[C@H](NC(=O)[C@H](CC(=O)O)NC(=O)[C@H](CC(=O)O)NC(=O)[C@@H](NC(=O)[C@H](C)NC(=O)[C@H](CCCCN)NC(=O)[C@H](CCCNC(=N)N)NC(=O)[C@H](Cc2ccccc2)NC(=O)[C@H](CCC(N)=O)NC(=O)[C@@H]2CSSC[C@H](N)C(=O)N[C@@H](CC(=O)O)C(=O)N[C@@H](C)C(=O)N[C@@H]([C@@H](C)O)C(=O)N2)[C@@H](C)CC)C(=O)N[C@@H](CC(=O)O)C(=O)N[C@@H](CCCCN)C(=O)N[C@@H](CCC(N)=O)C(=O)N[C@@H](C)C(=O)N[C@@H](Cc2c[nH]cn2)C(=O)N[C@@H](Cc2c[nH]cn2)C(=O)N[C@@H](CO)C(=O)N[C@@H](CC(N)=O)C(=O)N[C@@H](C(C)C)C(=O)N2CCC[C@H]2C(=O)NCC(=O)N[C@@H](CC(N)=O)C(=O)N[C@@H](CO)C(=O)N[C@@H](Cc2ccccc2)C(=O)N[C@@H](CCCCN)C(=O)NC(C)(C)C(=O)N1)C(=O)N[C@@H](CCCCN)C(=O)N[C@@H](CCC(N)=O)C(=O)N[C@@H](CCCCN)C(=O)N[C@@H](CCCCN)C(=O)N[C@@H](CCCCN)C(=O)N[C@@H](CCC(=O)O)C(=O)N[C@@H](Cc1ccccc1)C(=O)N[C@@H](CCCCN)C(N)=O [compound 258]	1 to 100 nM	0.01 to 1 nM
CCCC[C@H](NC(=O)[C@@H]1CSSC[C@H](NC(=O)[C@H](CC(=O)O)NC(=O)[C@H](CC(=O)O)NC(=O)[C@@H](NC(=O)[C@H](C)NC(=O)[C@H](CCCCN)NC(=O)[C@H](CCCNC(=N)N)NC(=O)[C@H](Cc2ccccc2)NC(=O)[C@H](CCC(N)=O)NC(=O)[C@@H]2CSSC[C@H](N)C(=O)N[C@@H](CC(=O)O)C(=O)N[C@@H](C)C(=O)N[C@@H]([C@@H](C)O)C(=O)N2)[C@@H](C)CC)C(=O)N[C@@H](CC(=O)O)C(=O)N[C@@H](CCCCN)C(=O)N[C@@H](CCC(N)=O)C(=O)N[C@@H](C)C(=O)N[C@@H](Cc2c[nH]cn2)C(=O)N[C@@H](Cc2c[nH]cn2)C(=O)N[C@@H](CO)C(=O)N[C@@H](CC(N)=O)C(=O)N[C@@H](C(C)C)C(=O)N2CCC[C@H]2C(=O)NCC(=O)N[C@@H](CC(N)=O)C(=O)N[C@@H](CO)C(=O)N[C@@H](C(C)C)C(=O)N[C@@H](Cc2ccccc2)C(=O)N[C@@H](CCCCN)C(=O)NC(C)(C)C(=O)N1)C(=O)N[C@@H](CCCCN)C(=O)N[C@@H](CCC(N)=O)C(=O)N[C@@H](CCCCN)C(=O)N[C@@H](CCCCN)C(=O)N[C@@H](CCCCN)C(=O)N[C@@H](CCC(=O)O)C(=O)N[C@@H](Cc1ccccc1)C(=O)N[C@@H](CCCCN)C(N)=O [compound 261]	1 to 100 nM	0.01 to 1 nM
